In PMC8916116 (The Journal of Experimental Medicine, 2022):

Experiments:
[1] = system: phosphorylated Erk1/2; assay: Western blot for phosphorylated Erk1/2 in iKras cells; type: cell-based, mouse; details: without doxycycline 48 h, 100 nM for 6 h
[2] = system: PDX260 (KRAS G12D PDA) and PDX TM00186 (KRAS G12C NSCLC); assay: PDX models, monotherapy; type: in vivo, NSG mice; details: equimolar doses: COBI 7.5 mg/kg, TRX-COBI 12 mg/kg, daily IP 25 d

O=C(c1ccc(F)c(F)c1Nc1ccc(I)cc1F)N1CC(O)([C@@H]2CCCCN2)C1 [COBI, cobimetinib, reference compound]
inhibition of MEK by phospho-ERK levels in uninduced iKras cells [1]: sensitive | tumor growth relative to vehicle [2]: significantly inhibited tumor growth
